Literature values, collected in article PMC8646516 (CPT: Pharmacometrics & Systems Pharmacology, 2021).

Conditions: cited from earlier work

lopinavir/ritonavir
Total exposure increase in patients with COVID-19 compared with non-COVID-19 patients: 2–5 fold
Unbound concentrations in COVID-19 compared to patients with HIV: unaltered
